How the values were obtained:
[1] = target: anhydro-trypsin (agarose-immobilized) (UniProt P00760); experiment: eluted from anhydrotrypsin beads
[2] = target: trypsin (active, immobilized on beads, or in solution) (UniProt P00760); experiment: eluted from trypsin beads
[3] = target: anhydro-trypsin (agarose-immobilized) (UniProt P00760); experiment: anhydrotrypsin beads
[4] = target: trypsin (active, immobilized on beads, or in solution) (UniProt P00760); experiment: acid-eluted from trypsin beads
[5] = target: trypsin (active, immobilized on beads, or in solution) (UniProt P00760); experiment: trypsin beads
[6] = target: human neutrophil elastase (immobilized on Reacti-Gel agarose beads, or free) (human) (UniProt P08246); experiment: HNE beads
[7] = target: human neutrophil elastase (immobilized on Reacti-Gel agarose beads, or free) (human) (UniProt P08246); experiment: HNE beads, pH 4.0 wash
[8] = target: human neutrophil elastase (immobilized on Reacti-Gel agarose beads, or free) (human) (UniProt P08246); experiment: HNE beads, pH 4.5 wash
[9] = target: human neutrophil elastase (immobilized on Reacti-Gel agarose beads, or free) (human) (UniProt P08246); experiment: HNE beads, pH 7.0 wash
[10] = target: human neutrophil elastase (immobilized on Reacti-Gel agarose beads, or free) (human) (UniProt P08246); experiment: HNE beads, pH 3.75 wash
[11] = target: human neutrophil elastase (immobilized on Reacti-Gel agarose beads, or free) (human) (UniProt P08246); experiment: HNE beads, pH 5.0 wash
[12] = target: human neutrophil elastase (immobilized on Reacti-Gel agarose beads, or free) (human) (UniProt P08246); experiment: HNE beads, pH 3.5 wash
[13] = target: human neutrophil elastase (immobilized on Reacti-Gel agarose beads, or free) (human) (UniProt P08246); experiment: HNE beads, pH 6.0 wash
[14] = target: human neutrophil elastase (immobilized on Reacti-Gel agarose beads, or free) (human) (UniProt P08246); experiment: HNE beads, pH 3.0 wash
[15] = target: human neutrophil elastase (immobilized on Reacti-Gel agarose beads, or free) (human) (UniProt P08246); experiment: HNE beads, pH 4.75 wash
[16] = target: human neutrophil elastase (immobilized on Reacti-Gel agarose beads, or free) (human) (UniProt P08246); experiment: HNE beads, pH 4.0 wash; remark: listed apart in the source
[17] = target: human neutrophil elastase (immobilized on Reacti-Gel agarose beads, or free) (human) (UniProt P08246); experiment: HNE beads, pH 5.5 wash
[18] = target: human neutrophil elastase (immobilized on Reacti-Gel agarose beads, or free) (human) (UniProt P08246); experiment: HNE beads, pH 6.0 wash; remark: listed apart in the source
[19] = target: human neutrophil elastase (immobilized on Reacti-Gel agarose beads, or free) (human) (UniProt P08246); experiment: phage mixture on HNE beads, pH 6.0 wash
[20] = target: human neutrophil elastase (immobilized on Reacti-Gel agarose beads, or free) (human) (UniProt P08246); experiment: phage mixture on HNE beads, pH 5.0 wash
[21] = target: human neutrophil elastase (immobilized on Reacti-Gel agarose beads, or free) (human) (UniProt P08246); experiment: HNE beads, pH 5.0 wash; remark: listed apart in the source
[22] = target: human neutrophil elastase (immobilized on Reacti-Gel agarose beads, or free) (human) (UniProt P08246); experiment: phage mixture on HNE beads, pH 4.0 wash
[23] = target: human neutrophil elastase (immobilized on Reacti-Gel agarose beads, or free) (human) (UniProt P08246); experiment: HNE beads, pH 4.25 wash
[24] = target: human neutrophil elastase (immobilized on Reacti-Gel agarose beads, or free) (human) (UniProt P08246); experiment: HNE beads, pH 7.0 wash; remark: listed apart in the source
[25] = target: human neutrophil elastase (immobilized on Reacti-Gel agarose beads, or free) (human) (UniProt P08246); experiment: acid-eluted from HNE beads
[26] = target: human neutrophil elastase (immobilized on Reacti-Gel agarose beads, or free) (human) (UniProt P08246); experiment: mixture of two phage on HNE beads, pH 4.0 fraction
[27] = target: human neutrophil elastase (immobilized on Reacti-Gel agarose beads, or free) (human) (UniProt P08246); experiment: phage mixture on HNE beads, pH 7.0 wash
[28] = target: human neutrophil elastase (immobilized on Reacti-Gel agarose beads, or free) (human) (UniProt P08246); experiment: pH 2.2 elution from beads
[29] = target: human neutrophil elastase (immobilized on Reacti-Gel agarose beads, or free) (human) (UniProt P08246); experiment: HNE beads, pH 2.2 elution
[30] = target: human neutrophil elastase (immobilized on Reacti-Gel agarose beads, or free) (human) (UniProt P08246); experiment: HNE beads, pH 2.2 wash
[31] = target: trypsin (active, immobilized on beads, or in solution) (UniProt P00760); experiment: trypsin beads, pH 2.2 elution

Substance: M13.3X7 phage (BPTI:VIII fusion with one EGGGS linker)
- eluted phage, % of input [1]: 25%
- eluted phage, % of input [2]: 1.4%
- relative binding (to M13MP18) [3]: 250 fold
- eluted phage, % of input [4]: 1.15%
- relative binding (to M13MP18) [5]: 2300 fold
- relative binding (to M13MP18) [6]: 3.3 fold

Substance: BPTI(K15V,R17L)-III MA phage (designed binder)
- % of input phage [7]: 0.515%
- total pfu recovered [7]: 2.02e+07 pfu
- % of input phage [8]: 0.355%
- total pfu recovered [8]: 1.39e+07 pfu
- % of input phage [9]: 0.081%
- total pfu recovered [9]: 3.19e+06 pfu
- % of input phage [10]: 0.235%
- total pfu recovered [10]: 9.2e+06 pfu
- % of input phage [11]: 0.241%
- total pfu recovered [11]: 9.45e+06 pfu
- % of input phage [12]: 0.106%
- total pfu recovered [12]: 4.16e+06 pfu
- % of input phage [13]: 0.138%
- total pfu recovered [13]: 5.42e+06 pfu
- % of input phage [14]: 0.068%
- total pfu recovered [14]: 2.65e+06 pfu

Substance: BPTI(K15L,MGNG)-III MA phage (designed binder)
- % of input [15]: 0.46%
- total pfu in fraction [15]: 1.3e+06 pfu
- % of input [16]: 0.048%
- total pfu in fraction [16]: 130000 pfu
- % of input [17]: 0.264%
- total pfu in fraction [17]: 730000 pfu
- % of input [18]: 0.227%
- total pfu in fraction [18]: 630000 pfu
- % of input [19]: 0.162%
- total ampicillin transducing units (transducing units) [19]: 71800
- % of input phage [7]: 0.069%
- total pfu recovered [7]: 142000 pfu
- % of input [8]: 0.13%
- % of input phage [8]: 0.211%
- total pfu in fraction [8]: 360000 pfu
- total pfu recovered [8]: 432000 pfu
- % of input [20]: 0.304%
- total ampicillin transducing units (transducing units) [20]: 135000
- % of input [21]: 0.316%
- total pfu in fraction [21]: 870000 pfu
- eluted phage, % of input [4]: 0.001%
- % of input [22]: 1.67%
- total ampicillin transducing units (transducing units) [22]: 743000
- % of input phage [9]: 0.046%
- total pfu recovered [9]: 94200 pfu
- relative binding (to M13MP18) [5]: 2 fold
- % of input phage [11]: 0.139%
- total pfu recovered [11]: 285000 pfu
- % of input [23]: 0.18%
- total pfu in fraction [23]: 500000 pfu
- % of input [12]: 0.014%
- % of input phage [12]: 0.026%
- total pfu in fraction [12]: 38000 pfu
- total pfu recovered [12]: 52900 pfu
- % of input [24]: 0.163%
- total pfu in fraction [24]: 450000 pfu
- eluted phage, % of input [25]: 4.1%
- % of input phage [13]: 0.079%
- total pfu recovered [13]: 161000 pfu
- fold enrichment over BPTI-III MK phage [26]: 984 fold
- relative binding (to M13MP18) [6]: 14000 fold
- % of input [27]: 0.313%
- total ampicillin transducing units (transducing units) [27]: 139000

Substance: BPTI(K15L)-III MA phage (designed binder)
- % of input [15]: 0.276%
- total pfu in fraction [15]: 990000 pfu
- % of input [16]: 0.014%
- total pfu in fraction [16]: 51000 pfu
- % of input [17]: 0.146%
- total pfu in fraction [17]: 530000 pfu
- % of input [18]: 0.1%
- total pfu in fraction [18]: 360000 pfu
- % of input phage [7]: 0.82%
- total pfu in fraction [7]: 4.3e+06 pfu
- ratio of phage bound to HNE beads over trypsin beads [28]: 36 fold
- % of input [8]: 0.085%
- total pfu in fraction [8]: 310000 pfu
- % of input phage recovered [29]: 0.1%
- total pfu in elution fraction [29]: 1e+06 pfu
- % of input [21]: 0.152%
- total pfu in fraction [21]: 560000 pfu
- % of input phage [9]: 0.032%
- total pfu in fraction [9]: 170000 pfu
- % of input phage [11]: 0.4%
- total pfu in fraction [11]: 2.1e+06 pfu
- % of input [23]: 0.142%
- total pfu in fraction [23]: 520000 pfu
- % of input [12]: 0.004%
- total pfu in fraction [12]: 13000 pfu
- % of input [24]: 0.082%
- total pfu in fraction [24]: 300000 pfu
- % of input phage [13]: 0.086%
- total pfu in fraction [13]: 450000 pfu
- % of input phage [14]: 0.21%
- total pfu in fraction [14]: 1.1e+06 pfu
- % of input phage [30]: 0.011%
- total pfu in fraction [30]: 59000 pfu
- % of input phage recovered [31]: 0.005%
- total pfu in elution fraction [31]: 52000 pfu
